PubChem BioAssay (NCI)
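Grown in 96-well plates, cells were treated for 48 hours with each compound at five concentrations. Insufficient inhibition: endpoint recorded as highest concentration tested. TGI denotes the concentration required for complete inhibition of growth.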

Legend:
Test in all cases: DTP human tumour cell line panel, 48 h
HOP-92 NSCLC = test system: HOP-92 NSCLC
UACC-62 melanoma = test system: UACC-62 melanoma
SF-539 CNS = test system: SF-539 CNS
SK-MEL-28 melanoma = test system: SK-MEL-28 melanoma
UO-31 renal = test system: UO-31 renal
NCI-H322M lung = test system: NCI-H322M lung
SF-268 CNS = test system: SF-268 CNS
NCI/ADR-RES ovarian = test system: NCI/ADR-RES ovarian
COLO 205 colon = test system: COLO 205 colon
SR leukemia = test system: SR leukemia
DU-145 prostate = test system: DU-145 prostate
MCF7 breast = test system: MCF7 breast
TK-10 renal = test system: TK-10 renal
SW-620 colon = test system: SW-620 colon
PC-3 prostate = test system: PC-3 prostate
HCC-2998 colon = test system: HCC-2998 colon
IGROV1 ovarian = test system: IGROV1 ovarian
U251 CNS = test system: U251 CNS
EKVX NSCLC = test system: EKVX NSCLC
OVCAR-3 ovarian = test system: OVCAR-3 ovarian
MALME-3M melanoma = test system: MALME-3M melanoma
SK-OV-3 ovarian = test system: SK-OV-3 ovarian
HCT-15 colon = test system: HCT-15 colon
SN12C renal = test system: SN12C renal
M14 melanoma = test system: M14 melanoma
MDA-MB-435 = test system: MDA-MB-435
SK-MEL-5 melanoma = test system: SK-MEL-5 melanoma
A549 NSCLC = test system: A549 NSCLC
T-47D breast = test system: T-47D breast
SK-MEL-2 melanoma = test system: SK-MEL-2 melanoma
K-562 leukemia = test system: K-562 leukemia
NCI-H226 lung = test system: NCI-H226 lung
NCI-H23 lung = test system: NCI-H23 lung
MDA-MB-231 breast = test system: MDA-MB-231 breast
ACHN renal = test system: ACHN renal
RPMI-8226 leukemia = test system: RPMI-8226 leukemia
HL-60(TB) leukemia = test system: HL-60(TB) leukemia
UACC-257 melanoma = test system: UACC-257 melanoma
HCT-116 colon = test system: HCT-116 colon
CCRF-CEM leukemia = test system: CCRF-CEM leukemia
OVCAR-4 ovarian = test system: OVCAR-4 ovarian
OVCAR-5 ovarian = test system: OVCAR-5 ovarian
LOX IMVI melanoma = test system: LOX IMVI melanoma
KM12 colon = test system: KM12 colon
SF-295 CNS = test system: SF-295 CNS
HOP-62 NSCLC = test system: HOP-62 NSCLC
SNB-75 CNS = test system: SNB-75 CNS
OVCAR-8 ovarian = test system: OVCAR-8 ovarian
MOLT-4 leukemia = test system: MOLT-4 leukemia
MDA-N = test system: MDA-N
HS 578T breast = test system: HS 578T breast
HT29 colon = test system: HT29 colon
786-0 renal = test system: 786-0 renal

Measured: TGI

CCOP1(=O)N=C(NC2=NC(C(F)(F)F)(C(F)(F)F)N=C(C(F)(F)F)O2)N(C)C1(C)C (stereo not drawn)
> 100 µM: HOP-92 NSCLC | UACC-62 melanoma | SF-539 CNS | SK-MEL-28 melanoma | UO-31 renal | NCI-H322M lung | SF-268 CNS | NCI/ADR-RES ovarian | COLO 205 colon | SR leukemia | DU-145 prostate | MCF7 breast | TK-10 renal | SW-620 colon | PC-3 prostate | HCC-2998 colon | IGROV1 ovarian | U251 CNS | EKVX NSCLC | OVCAR-3 ovarian | MALME-3M melanoma | SK-OV-3 ovarian | HCT-15 colon | SN12C renal | M14 melanoma | MDA-MB-435 | SK-MEL-5 melanoma | A549 NSCLC | T-47D breast | SK-MEL-2 melanoma | K-562 leukemia | NCI-H226 lung | NCI-H23 lung | MDA-MB-231 breast | ACHN renal | RPMI-8226 leukemia | HL-60(TB) leukemia | UACC-257 melanoma | HCT-116 colon | CCRF-CEM leukemia | OVCAR-4 ovarian | OVCAR-5 ovarian | LOX IMVI melanoma | KM12 colon | SF-295 CNS | HOP-62 NSCLC | SNB-75 CNS | OVCAR-8 ovarian | MOLT-4 leukemia | MDA-N | HS 578T breast | HT29 colon | 786-0 renal
